The numbers were not newly measured in patent US20230382949A1, “LINEAR APELIN RECEPTOR AGONISTS” (HEPTARES THERAPEUTICS LIMITED, priority 2020, published 2023), which cites them from elsewhere.

For this series the following is noted: cited from earlier work.

As to Apelin [reference compound], the “half-life in the blood circulation” value is “around one”.
